The values below come from ChEMBL document CHEMBL1124901 (J Med Chem, 1990).

For the test, the target named is Dopamine receptor. The test is described as follows: In vitro inhibition of [3H]-Spiperone binding to Dopamine receptor D2 in Macaca nemestrina striatal membranes (using L-tartrate salt of authentic raclopride). Details: species or system Striatum, Membrane.

In the case of `CCN1CCC[C@H]1CNC(=O)c1c(O)c(Cl)cc(Cl)c1OC` [RACLOPRIDE], the Ki (as a rule, a dissociation constant, usually derived from enzyme kinetics or from competition with a known ligand) is reported as 5.1 nM.
